# Source: patent EP4825847A1, “NMDA RECEPTOR ANTAGONIST AND USE THEREOF” (dated 2026)
# Assays:
# [1] = test system: C57BL/6J male mice; test: Toxicity test of compounds (non-toxic dose exploration, epilepsy-like behavior score); settings: i.p.; for NOAEL dosage (mg/kg) (score 0) / Minimum toxic dose (mg/kg) (score 1): about one hour observation; for NOAEL dosage (mg/kg) (score 0): epilepsy-like behavior score 0; for Minimum toxic dose (mg/kg) (score 1): epilepsy-like behavior score 1
# Protocol: The exploration test of non-toxic dose of the compound is an important index to evaluate the safety of the compound. High safety will bring a higher treatment window. The animal information was the same as that in Test Example 2.
# • 1. The test was carried out in a quiet environment. The animals were weighed and acclimated in the test chamber for at least 30 min before the test. • 2. The compound to be tested was dissolved in 0.9% physiological saline, and the corresponding volume of the compound was intraperitoneally injected (i.p.) according to the weight of mice. The dosage was the target dosage of administration. The number of animals in each group was 2 or 3. • 3. The mice after administration were placed in a transparent observation chamber, and the behavior changes of the mice were video recorded and observed for about one hour. (Note: During the observation period, if the mouse was lying still, the mouse was turned over by hand, and whether the righting reflex (RR) of the mouse disappeared was checked. If disappeared, the mouse was in an anesthetic state, and the time of anesthesia of the mouse was recorded). • 4. After the one-hour observation, the mice were returned to the rearing cage. The observation chamber was wiped with 75% alcohol, to avoid the influence of the information left by animals in the last round (such as the smell of animals' feces and urine) on the next test result. The next round of animals were changed to continue the test.
# Table C. Epilepsy-like behavior rating scale for rodents
# [2] = test system: C57BL/6J male mice; test: Pre-pulse inhibition test; settings: 45 mg/kg
# Excerpt: Pre-pulse inhibition phenomenon is an important parameter to evaluate the sensorimotor gating function, and an index to evaluate schizophrenia-like behavior. This phenomenon means that a weak stimulus occurring before a strong stimulus will reduce the degree of animal response to the strong stimulus. In the present invention, the PPI test was used to evaluate whether the compound could induce psychotomimetic-like behavior in mice.
# The animal information was the same as that in Test Example 2. The number of animals in each group (N) was 10, and the administration mode was intraperitoneal injection or oral administration (p.o.). The dosage of S-ketamine was 20 mg/kg, the dosage of other compounds was 45 mg/kg, and the administration volume was 10 mL/kg. The dosage for oral administration was 10 mg/kg.
# Test process: The test was carried out in a quiet environment. The mice were weighed and acclimated in the test chamber for at least 30 min before the test. The PPI test was divided into four stages, including: acclimation stage, Block 1, Block 2, and Block 3. At the beginning of the test, the mice were given corresponding doses of solvent (control group) or test compound according to their body weight. Then the mice were placed in a startle response chamber and allowed to acclimate for 5 min without stimulation. Then in Block 1-3, the mice were given startle stimuli of varying decibel intensities. In Block 1 and Block 3, 10 trials were set, and each trial had no pre-pulse stimuli. The startle stimulus was set to be white noise of 120 dB. The time interval between trials varies randomly from 10 to 15 sec. Block 2 was set to have 56 trials. There were three types of stimuli: (1) a continuous startle stimulus of 120 dB was given in 8 trials; (2) a pre-pulse stimulus of 67, 70, 73, or 76 dB was given first and then a startle stimulus of 120 dB was given in 32 trials, and only pre-pulse stimulus (two trials for each of the four pre-pulse stimuli) was given in 8 trials; and (3) no stimulus was given in 8 trials, and the duration was 200 ms. The duration of pre-pulse stimulus was 20 ms, and the fixed interval was 100 ms. The duration of startle stimulus in all Block was 40 ms, and the background noise was set to 62dB. The instrument was wiped with 75% alcohol after each test, to avoid the influence of the information left by animals in the last round (such as the smell of animals' feces and urine) on the next test result. The difference was analyzed by unpaired t-test to have statistical significance, where P<0.05 means that there was a significant difference. ^# P<0.05, * P<0.05, ** P<0.01, *** P<0.001. […] Compound 2SS mesylate tends to cause loss of PPI at a pre-pulse level of 67 dB and 70 dB. Compound 2RR mesylate causes loss of PPI at a pre-pulse level of 76 dB. […]
# [3] = Pharmacokinetic test in mice
# Protocol: The test was to investigate the pharmacokinetic characteristics of the compound of the present invention in C57BL/6J male mice after oral administration (oral gavage) and intravenous injection.
# Male C57BL/6J mice aged 10-12 weeks were given the solution of the compound by intravenous injection (i.v.) and oral administration (p.o.) respectively. The vehicle for intravenous injection was 0.9% physiological saline for injection. The administration dosage volume was 5 mL/kg. The animals were allowed to normal access to food and water before administration. The vehicle for oral administration was 0.9% physiological saline for injection. The administration dosage volume was 10 mL/kg. The animals were fasted for 16 hrs before administration. 0.0333, 0.1667, 0.3330, 1, 2, 4, 6, 8, 24 hrs after administration, about 70 µL of blood was collected from the facial veins of the two groups of animals, transferred to an anticoagulant tube with EDTA-K2, placed on ice, and then centrifuged at 4 Celsius degrees in 1 hr to separate the plasma (4500 g, 15 min). The drug concentration was analyzed by LC-MS/MS, and the related pharmacokinetic parameters were calculated through the linear-log trapezoidal method by non-compartmental analysis using PKSolver2.0 kinetic software.
# [4] = test system: C57BL/6J male mice; test: Forced swimming test
# Protocol: Test animals: C57BL/6J male mice aged 10-12 weeks were purchased from Speifu (Suzhou) Biotechnology Co., Ltd. The animals arrived at the test center before the test and acclimated in the feeding room for more than 7 days. 5 animals per cage was bred at a temperature of 23-24°C, under a 12-hr light/12-hr dark cycle. Before the behavioral test, the animals were taken to the behavioral test chamber 1 hour in advance, to acclimate to the environment.
# Forced swimming test is a standard behavioral test to evaluate the depressive behavior of rodents. […] It is generally accepted that this behavioral despair is similar to the depressive symptoms in humans. The objective of this test was to evaluate the antidepressant efficacy of the compound of the present invention in C57 mice.
# In the FST test, the number of animals in each group (N) was 15, the administration mode was intraperitoneal injection (i.p.) or oral gavage (p.o.), the dosage of administration was 5, 10 or 20 mg/kg (depending on the experimental needs), and the volume of administration was 10 mL/kg. The vehicle was 0.9% physiological saline.
# Test process: 1. The test was carried out in a quiet environment. The animals were weighed and acclimated in the test chamber for at least 30 min before the test.
# 2. The compound to be tested was dissolved in 0.9% physiological saline, and the corresponding volume of the compound was given by intraperitoneal injection (i.p.) or oral gavage (p.o.) according to the weight of mice and used as the test group. 0.9% physiological saline was used as the control group, and the dosage was the target dosage of administration. The administration process was double-blinded administration.
# 3. 1 hr after administration, the mice were placed in a transparent plexiglass water tank with a diameter of 15 cm and a height of 30 cm, in which water was injected to a height of about 15 cm, and the water temperature was 23-25°C. The total recording time was 6 min.
# 4. The immobility time of mice within later 4 min was analyzed, with which the degree of helplessness and despair of mice was reflected.
# 5. The immobility time of mice between the administration group and the control group was compared, and the antidepressant activity (1-h inhibition rate) of the compound to be tested was analyzed. The difference was analyzed by unpaired t-test to have statistical significance, P<0.05 means that there was a significant difference. * P<0.05, **P<0.01, ***P<0.001. [formula]
# [5] = test system: C57BL/6J male mice; test: Open field test of mice; settings: intraperitoneal administration of 10 mg/kg; compared with the vehicle group
# Excerpt: Open field test is a standard behavioral method to evaluate the voluntary movement behavior and the exploratory behavior, which is widely used in the research of neurological and psychiatric diseases such as depression, anxiety, Parkinson's disease and screening of drugs acting on central nervous system.
# Due to the limited tests to evaluate the hallucinogenic effect of NMDAR antagonists, the open field test is used in the present invention to evaluate whether the compound affects the spontaneous locomotor activity of mice and also used to indirectly evaluate whether the compound has hallucinogenic effect. Furthermore, the increase of spontaneous locomotor activity of mice is also considered as one of the positive symptoms of schizophrenia. Therefore, the open field test can also be used to evaluate whether the compound has the psychotomimetic-like side effects.
# The animal information was the same as that in Test Example 2. The number of animals in each group (N) was 10, the administration mode was intraperitoneal injection or oral administration, the dosage of administration was 5 or 10 mg/kg, and the volume of administration was 10 mL/kg.
# Test process: The open field test chamber was a soundproof chamber made of opaque plexiglass and having an inner diameter of 40*40*40 cm, and the analysis software was purchased from Noldus (Ethovision XT 11.5). The test was carried out in a quiet environment. The animals were weighed and acclimated in the test chamber for at least 30 min before the test. Before the test, the software EthoVision XT 11.5 was set, the wild-type mice were placed at the center of the bottom of the chamber, and the activity within 30 min or 20 min was recorded as the baseline. After 30 min, the mice were taken out and given corresponding doses of solvent (control group) or test compound according to their body weight. Immediately after administration, the mice were placed in the same observation chamber as that in the baseline stage, and their activities within 40 min after administration were recorded. The instrument was wiped with 75% alcohol after each test, to avoid the influence of the information left by animals in the last round (such as the smell of animals' feces and urine) on the next test result. The next round of animals were changed to continue the test. After the test, data were collected for statistical analysis. The difference was analyzed by unpaired t-test to have statistical significance, where P<0.05 means that there was a significant difference. ^# P<0.05, * P<0.05, **P<0.01, ***P<0.001, **** P<0.0001. After the test, the distance (cm) traveled by the mice in the control and test compound groups every 5 min was statistically analyzed. 33 to 36.
# [6] = Intravenous administration, 1 mg/kg
SMILES,NOAEL dosage (mg/kg) (score 0) [1],Minimum toxic dose (mg/kg) (score 1) [1],PPI ([2]; pre-pulse level of 76 dB),PPI ([2]; pre-pulse level of 67 dB and 70 dB),"AUC0-last [3, 6] [µg·h/mL]","Cl [3, 6] [L/h/kg]",Bioavailability (F%) ([3]; Oral administration 20 mg/kg vs i.v. 1 mg/kg) [%],"AUC0-last ([3]; Oral administration, 20 mg/kg) [µg·h/mL]","T1/2 ([3]; Oral administration, 20 mg/kg) [h]",antidepressant effect ([4]; 10 mg/kg p.o.),"1-h inhibition rate ([4]; p.o., 20 mg/kg, immobility time 1 hr after administration) [%]","STD10 (mg/kg) (score 8) ([1]; dose at which 10% of the animals have severe toxic reaction, score 8)",distance traveled by the mice [5]
Clc1cccc([C@]23CCCC[C@H]2OCCN3)c1,45,60,causes loss of PPI,–,–,–,–,–,–,–,–,–,–
Clc1cccc([C@@]23CCCC[C@@H]2OCCN3)c1,25,35,–,tends to cause loss of PPI,–,–,–,–,–,–,–,–,–
c1ccc([C@@]23CCCC[C@@H]2OCCN3)cc1,20,40,–,–,0.241,4.08,40,1.951,1.02,significant antidepressant effect,42.8,250,no significant difference
